Measured values as given in ChEMBL document CHEMBL5625167, “In vitro bioevaluation and docking study of dihydrosphingosine and ethambutol analogues against sensitive and multi-drug resistant Mycobacterium tuberculosis” (Eur J Med Chem, 2023).

Legend:
[1] = system: Mycolicibacterium smegmatis; experiment: Antimycobacterial activity against Mycobacterium smegmatis ATCC607 assessed as log reduction in bacterial viability at 16 uM incubated for 24 hrs by time kill assay
[2] = system: Mycolicibacterium smegmatis; experiment: Antimycobacterial activity against Mycobacterium smegmatis ATCC607 assessed as 10 log reduction in bacterial viability at 16 uM incubated for 48 to 72 hrs by time kill assay in presence of rifampicin; details: time 48-72 hrs

CCCCCCCCCCCCCCCCCCCC(CNCC)NC(=O)OC(C)(C)C (configuration not stated)
log(activity) [1]: 2.7 | log(activity) [2]: 2.6
